# Measured values published in US5959130A, “Castor based benzoate esters” (Finetex, Inc., priority 1997, dated 1999).
# Conditions: Gardnor scale
row,Substance,Color
1,Castor Oil Benzoate [Example 2],3
2,Benzoate Ester of Octylhydroxy Stearate [Example 12],3
3,Castor Oil Benzoate [Example 5],3
4,Castor Oil Benzoate [Example 3],3
5,Castor Oil Benzoate [Example 1],3
6,Castor Oil Benzoate [Example 4],3
